Literature values, collected in article PMC7175122 (Biomolecules, 2020).
pIC50: −log10 of the molar value. Read-outs that look alike come from different tables or passages of the source.

Biological target: T1, VEGF-A165/NRP-1 complex (Homo sapiens, UniProt O14786)
T1 construct: purchased R&D Systems (Minneapolis, MN, USA)
T1 sequence (O14786 22-641 limits assumed): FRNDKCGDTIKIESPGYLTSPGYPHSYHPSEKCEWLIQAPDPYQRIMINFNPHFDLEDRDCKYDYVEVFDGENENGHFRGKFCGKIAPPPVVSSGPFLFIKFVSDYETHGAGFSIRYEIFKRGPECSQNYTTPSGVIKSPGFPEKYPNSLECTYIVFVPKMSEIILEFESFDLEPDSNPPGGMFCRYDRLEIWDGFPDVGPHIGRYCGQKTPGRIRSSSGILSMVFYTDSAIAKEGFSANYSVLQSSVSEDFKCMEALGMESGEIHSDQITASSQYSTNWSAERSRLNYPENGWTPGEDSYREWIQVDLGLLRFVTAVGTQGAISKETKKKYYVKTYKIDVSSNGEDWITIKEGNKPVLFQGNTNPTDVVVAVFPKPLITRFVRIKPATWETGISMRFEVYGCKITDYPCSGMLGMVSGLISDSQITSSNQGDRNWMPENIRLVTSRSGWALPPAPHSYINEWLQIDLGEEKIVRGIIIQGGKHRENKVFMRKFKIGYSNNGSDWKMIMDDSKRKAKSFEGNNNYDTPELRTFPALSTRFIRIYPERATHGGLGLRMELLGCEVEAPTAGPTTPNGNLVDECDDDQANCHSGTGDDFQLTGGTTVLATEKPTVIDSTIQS
Conditions: cited from earlier work

ATWLPPR [Compound A7R, heptapeptide NRP-1 ligand identified by phage display]
pIC50 (binding to NRP-1, read-out: IC50): 4.08 to 4.22 | pIC50 (reference peptide, read-out: RP IC50): 4.10
